## OPERA 2.9 data: properties

Source: data files of OPERA 2.9 (Mansouri et al.), github.com/kmansouri/OPERA.

The melting point is given in degrees Celsius. The boiling point refers to atmospheric pressure (760 mmHg), by the definition of the set. The octanol-water partition coefficient is given as log10; larger values mean a more lipophilic compound. Solubility in water is on a log10 molar scale (set defined at 25 °C). Vapor pressure is log10 of mmHg; the set covers 15 to 30 °C, mostly 20 to 25 °C. fu is the fraction unbound in human plasma, from 0 to 1. Intrinsic clearance (human, µL/min per 10^6 hepatocytes): higher is faster turnover, and 0 stands for none detected. Cells with "–" have no entry in this list.

* O=S(=O)(O)c1ccc(O)cc1 [4-Hydroxyphenylsulfonic acid]: bp 166.7 °C; log VP -6.478 (log10 mmHg)
* CCOc1ccccc1C(=N)N.Cl [2-Ethoxybenzamidine hydrochloride]: mp 206.8 °C; log Kow 0.206
* CNS(=O)(=O)c1cc(OC)c(N)cc1OC [Benzenesulfonamide, 4-amino-2,5-dimethoxy-N-methyl-]: log Kow 0.27; log S -3.651 (log10 mol/L)
* Cc1ccc2nc(-c3ccc(/N=N/c4ccc(-c5nc6ccc(C)c(S(=O)(=O)[O-])c6s5)cc4)cc3)sc2c1S(=O)(=O)[O-].[Na+].[Na+]: mp 367 °C; log Kow -2.68
* CCOC(=O)CC1C=CCC1 (stereo not drawn) [2-Cyclopentene-1-acetic acid, ethyl ester]: bp 196.6 °C; log Kow 2.89; log S -2.406 (log10 mol/L); log VP -0.052 (log10 mmHg)
* CC(C)(C=O)CN1CCOCC1 [2,2-Dimethyl-3-(morpholin-4-yl)propanal]: bp 199 °C; log Kow 1.689; log VP -0.347 (log10 mmHg)
* CC(C)(c1ccccc1)c1ccc(Nc2ccc(C(C)(C)c3ccccc3)cc2)cc1: log Kow 7.9; log S -7.782 (log10 mol/L); hepatic Clint 0 µL/min/10^6 cells
* c1ccc2cc3ccccc3cc2c1: fu 0.0252; hepatic Clint 13.33 µL/min/10^6 cells
* C1CC2C3CC(C2C1)C1(CCCO1)C3 (stereo not drawn) [Decahydrospiro[furan-2(3H),5'-[4,7]methano[5H]indene]]: bp 262.8 °C; log Kow 4.7; log S -5.942 (log10 mol/L); log VP -1.83 (log10 mmHg)
* CCCCCC/C=C/C(=O)OC [Methyl (2E)-2-nonenoate]: log S -3.668 (log10 mol/L); log VP -0.917 (log10 mmHg)
* CC(C)(C)OC(=O)C(C)(C)O/N=C(\C(=O)Sc1nc2ccccc2s1)c1csc(N)n1: mp 120 °C; log Kow 4.14
* CC(CC(C)C)=NO [N-(4-Methyl-2-pentanylidene)hydroxylamine]: log Kow 1.54; log VP -0.147 (log10 mmHg)
* CO/N=C(/C(=O)OC)c1ccccc1CCl [Methyl (2E)-(2-(chloromethyl)phenyl)(methoxyimino)acetate]: mp 56.8 °C; log Kow 2.1; log S -2.815 (log10 mol/L); log VP -4.71 (log10 mmHg)
* CCCc1ccc(-c2cc(F)c(C(F)(F)Oc3cc(F)c(F)c(F)c3)c(F)c2)cc1: mp 43.8 °C; log S -6.884 (log10 mol/L); log VP -3.887 (log10 mmHg)
* CCCCCCCCCCCCCCCCCCOC(=O)CC[C@H](NC(=O)CCCCCCCCCCC)C(=O)OCCCCCCCCCCCCCCCCCC [Distearyl lauroyl glutamate]: mp 72.3 °C; log VP -6.62 (log10 mmHg)
* O=C(N[C@H](C(=O)O)C1CCCCC1)OCc1ccccc1 [(2S)-{[(Benzyloxy)carbonyl]amino}(cyclohexyl)acetic acid]: log Kow 1.7; log S -3.285 (log10 mol/L); log VP -7.824 (log10 mmHg)
* c1ccc(CNc2[nH]cnc3ncnc2-3)cc1 [N-benzyladenine]: fu 0.138; hepatic Clint 0 µL/min/10^6 cells
* CC(C)=CCC(C)CC(C)CO (stereo not drawn) [2,4,7-Trimethyloct-6-en-1-ol]: bp 241 °C; log S -3.227 (log10 mol/L)
* Cc1cc(C)c(O)c(C(C)(C)C)c1 [6-tert-Butyl-2,4-xylenol]: log Kow 4.08; log S -3.172 (log10 mol/L)
* Cc1ccc(C(C)(C)C)c(O)c1 [2-tert-butyl-5-methylphenol]: fu 0.0264; hepatic Clint 36 µL/min/10^6 cells
* CCCCCCCC[N+](C)(CCCCCCCC)CCCCCCCC.[Cl-] [Methyltrioctylammonium chloride]: log Kow 4.5; log S -4.283 (log10 mol/L)

The first 2 entries again:

| compound | name | mp (°C) | bp (°C) | log Kow | log S (log10 mol/L) | log VP (log10 mmHg) | fu | hepatic Clint (µL/min/10^6 cells) |
|---|---|---|---|---|---|---|---|---|
| O=S(=O)(O)c1ccc(O)cc1 | 4-Hydroxyphenylsulfonic acid | – | 166.7 | – | – | -6.478 | – | – |
| CCOc1ccccc1C(=N)N.Cl | 2-Ethoxybenzamidine hydrochloride | 206.8 | – | 0.206 | – | – | – | – |

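These are experimental values that the OPERA curators gathered from public databases to train and test their QSAR models. The files give a single number for a compound and property, which may rest on several reports. Conditions of the individual experiments are not part of the data. The measured form (salt, isomer or mixture) is not always the one drawn. Some entries may be limits or estimates that an upstream database listed as plain numbers.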